For the test, the system named is synthesis of estrogens. As to conditions: ovaries, seven days.
The mark [1] stands for this setting: 30 ppm in feed (approximately 3 mg/kg/day).
[2] abbreviates: 300 ppm in feed (approximately 30 mg/kg/day).

Where two headings read alike, the source gives them in different places.

Turning to `Clc1ccc(C(c2ccc(Cl)cc2)c2cncnc2)cc1` [compound 27, 5-bis(4-chlorophenyl)methylpyrimidine], under setting [1], the “Mean Steroid Concentration estradiol” value was 0.14^+ femtomoles per milligram of protein, the “Mean Steroid Concentration estriol” value is given as 0.59 femtomoles per milligram of protein and the “Mean Steroid Concentration estrone” value is 0.14 femtomoles per milligram of protein. For the same compound, under setting [2], the “Mean Steroid Concentration estradiol” value is on record as 0.15^+ femtomoles per milligram of protein, the “Mean Steroid Concentration estriol” value is recorded as 0.29 femtomoles per milligram of protein and the “Mean Steroid Concentration estrone” value was 0.12 femtomoles per milligram of protein.

With `OC(c1ccc(Cl)cc1)(c1ccc(Cl)cc1)c1cncnc1` [compound 29, α,α-bis(4-chlorophenyl)-5-pyrimidinemethanol], under setting [1], the “Mean Steroid Concentration estradiol” value is given as 0.31^+ femtomoles per milligram of protein, the “Mean Steroid Concentration estriol” value is listed as 1.24 femtomoles per milligram of protein and the “Mean Steroid Concentration estrone” value is 0.34 femtomoles per milligram of protein. In addition, under setting [2], the “Mean Steroid Concentration estradiol” value was 0.14^+ femtomoles per milligram of protein, the “Mean Steroid Concentration estriol” value is listed as 2.74 femtomoles per milligram of protein and the “Mean Steroid Concentration estrone” value is given as 0.70 femtomoles per milligram of protein.
